Experimental data reported in ChEMBL document CHEMBL4007459, “Design of Potent mRNA Decapping Scavenger Enzyme (DcpS) Inhibitors with Improved Physicochemical Properties To Investigate the Mechanism of Therapeutic Benefit in Spinal Muscular Atrophy (SMA)” (J Med Chem, 2017).

How the values were obtained:
[1] = Efflux ratio of permeability from basolateral to apical over apical to basolateral side of MDCK cells expressing MDR1; type: ADME, cell-based, Canis lupus familiaris; settings: dog
[2] = Ratio of fraction unbound in FVB/N mouse plasma to fraction unbound in FVB/N mouse brain; type: ADME

Ratio [1]	Ratio [2]	Compound
2.1	–	Cc1ncccc1OCc1cccc2nc(N)nc(N)c12
> 2.5	–	Nc1nc(N)c2c(OCC3CCN(Cc4c(Cl)cccc4Cl)CC3)cccc2n1
2.3	2.5	N#Cc1cc(F)cc(OCc2cccc3nc(N)nc(N)c23)c1
